Measured values from article PMC4848510, “Foldamer-mediated manipulation of a pre-amyloid toxin” (Nature Communications, 2016).

Molecular target: T1, IAPP (Homo sapiens, UniProt P10997)
T1 construct: IAPP is a 37-residue peptide co-packaged with insulin in pancreatic β-cells; purchased Genscript; Elim Biopharmaceuticals
T1 sequence (P10997 34-70 limits assumed): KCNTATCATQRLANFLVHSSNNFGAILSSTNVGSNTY
Test: LUV-catalysed IAPP fibre formation kinetic assay (ThT fluorescence)
Type: biochemical
Conditions: 10 μM IAPP, 630 μM LUVs DOPG:DOPC 1:1, 100 nm, at least triplicate, ±1 s.d.
Description: Unless otherwise stated, LUVs used in this work were prepared from a 1:1 mixture of DOPG/DOPC. The lyophilized mixture was hydrated in 100 mM KCl, 50 mM sodium phosphate and pH 7.4 for 20 min. A 20mg ml^−1 solution of lipid in buffer was passed 21 times through a polycarbonate membrane (pore diameter=100 nm). The phospholipid content of the final material was measured using a total phosphorous assay.
Amyloid reactions were conducted in buffer containing liposome (630 μM lipid) and 20 μM ThT in a black 96-well plate. This was followed by the addition of small molecule dissolved in dimethylsulphoxide (DMSO; final DMSO concentration=0.5%, v/v). Fibre formation was initiated by the addition of IAPP stock solution. The final volume in each well was 200 μl. Kinetics of fibrillation was monitored by ThT fluorescence (excitation 450 nm and emission 485 nm), using a FluoDia T70 fluorescence plate reader (Photon Technology International, Edison, NJ, USA). The data were blank subtracted and renormalized to the maximum intensity of reactions containing only IAPP. Each kinetic trace was fit to a sigmoidal form:
where I is the fluorescence intensity, t is time, and b, m and τ are dependent fitting variables. All samples were run at least in triplicate and error bars shown in the text represent ±1 s.d.

CC[C@H](C)[C@H](NC(=O)[C@H](C)NC(=O)CNC(=O)[C@H](Cc1ccccc1)NC(=O)[C@H](CC(N)=O)NC(=O)[C@H](CC(N)=O)NC(=O)[C@H](CO)NC(=O)[C@H](CO)NC(=O)[C@H](Cc1c[nH]cn1)NC(=O)[C@@H](NC(=O)[C@H](CC(C)C)NC(=O)[C@H](Cc1ccccc1)NC(=O)[C@H](CC(N)=O)NC(=O)[C@H](C)NC(=O)[C@H](CC(C)C)NC(=O)[C@H](CCCNC(=N)N)NC(=O)[C@H](CCC(N)=O)NC(=O)[C@@H](NC(=O)[C@H](C)NC(=O)[C@@H]1CSSC[C@H](NC(=O)[C@@H](N)CCCCN)C(=O)N[C@@H](CC(N)=O)C(=O)N[C@@H]([C@@H](C)O)C(=O)N[C@@H](C)C(=O)N[C@@H]([C@@H](C)O)C(=O)N1)[C@@H](C)O)C(C)C)C(=O)N[C@@H](CC(C)C)C(=O)N[C@@H](CO)C(=O)N[C@@H](CO)C(=O)N[C@H](C(=O)N[C@@H](CC(N)=O)C(=O)N[C@H](C(=O)NCC(=O)N[C@@H](CO)C(=O)N[C@@H](CC(N)=O)C(=O)N[C@H](C(=O)N[C@@H](Cc1ccc(O)cc1)C(N)=O)[C@@H](C)O)C(C)C)[C@@H](C)O [IAPP]
reaction midpoint t50 of IAPP fibre formation with LUVs: 1.1 ± 0.1 h
